From ChEMBL document CHEMBL6153133, “Discovery of Diphenyl Ether Derivatives as Novel BKCa Channel Activators: Structure-Activity Relationship, Cryo-EM Complex Structures, and In Vivo Animal Studies” (J Med Chem, 2025)

Amino acid sequences for entries named in this document (tags omitted).
Calcium-activated potassium channel subunit alpha-1 (Homo sapiens), Q12791, UniProt Q12791, whole entry, looked up, stated change not applied: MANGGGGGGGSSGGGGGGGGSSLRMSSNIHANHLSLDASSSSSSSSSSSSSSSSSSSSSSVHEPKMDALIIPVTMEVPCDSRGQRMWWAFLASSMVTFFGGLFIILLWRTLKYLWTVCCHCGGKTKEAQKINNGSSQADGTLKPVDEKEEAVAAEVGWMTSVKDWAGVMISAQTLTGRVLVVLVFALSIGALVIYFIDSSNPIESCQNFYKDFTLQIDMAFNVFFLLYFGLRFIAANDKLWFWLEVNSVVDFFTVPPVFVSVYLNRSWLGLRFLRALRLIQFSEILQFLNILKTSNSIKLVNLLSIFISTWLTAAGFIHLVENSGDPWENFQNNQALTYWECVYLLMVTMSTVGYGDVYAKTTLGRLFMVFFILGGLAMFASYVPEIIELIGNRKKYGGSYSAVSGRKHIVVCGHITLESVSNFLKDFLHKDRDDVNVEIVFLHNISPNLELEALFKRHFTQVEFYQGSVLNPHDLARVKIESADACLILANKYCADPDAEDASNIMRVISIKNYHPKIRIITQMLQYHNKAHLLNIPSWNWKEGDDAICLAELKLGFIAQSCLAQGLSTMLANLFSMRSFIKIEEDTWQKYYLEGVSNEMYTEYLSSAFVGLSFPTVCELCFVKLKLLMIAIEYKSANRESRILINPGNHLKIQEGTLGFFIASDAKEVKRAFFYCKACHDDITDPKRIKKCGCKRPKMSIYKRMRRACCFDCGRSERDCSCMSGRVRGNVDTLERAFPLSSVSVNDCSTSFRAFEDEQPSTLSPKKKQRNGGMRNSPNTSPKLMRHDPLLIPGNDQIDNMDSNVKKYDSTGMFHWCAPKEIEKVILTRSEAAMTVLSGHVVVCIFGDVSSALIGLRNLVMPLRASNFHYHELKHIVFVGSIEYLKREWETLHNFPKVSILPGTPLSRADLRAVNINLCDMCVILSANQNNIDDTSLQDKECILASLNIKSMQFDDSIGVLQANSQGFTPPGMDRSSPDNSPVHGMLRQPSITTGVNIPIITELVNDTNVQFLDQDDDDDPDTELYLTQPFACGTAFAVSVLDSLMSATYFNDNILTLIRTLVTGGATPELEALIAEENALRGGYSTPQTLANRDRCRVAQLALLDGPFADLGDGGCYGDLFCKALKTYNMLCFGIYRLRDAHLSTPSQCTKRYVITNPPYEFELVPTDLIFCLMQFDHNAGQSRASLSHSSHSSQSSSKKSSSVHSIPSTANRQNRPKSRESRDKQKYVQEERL

Legend:
Assay type in all cases: cell-based
Conditions in all cases: filed as opener, time 980.0 sec
[1] = tested on: Calcium-activated potassium channel subunit alpha-1 (Homo sapiens), Q12791 [UNDEFINED MUTATION]; assay: (§1) Activation of hyperactive human BKca channel G803D/N806K mutant transfected in human AD-293 cells assessed as fold change in maximum relative fluorescence value at 0.3 uM preincubated for 15 mins followed by Tl+ stimulus buffer addition and measured after 80 sec by Flexstation3 multimode microplate reader analysis
[2] = tested on: Calcium-activated potassium channel subunit alpha-1 (Homo sapiens), Q12791 [UNDEFINED MUTATION]; assay: as §1, with “3” for “0.3”
[3] = tested on: Calcium-activated potassium channel subunit alpha-1 (Homo sapiens), Q12791 [UNDEFINED MUTATION]; assay: as §1, with “0.1” for “0.3”
[4] = tested on: Calcium-activated potassium channel subunit alpha-1 (Homo sapiens), Q12791 [UNDEFINED MUTATION]; assay: as §1, with “1” for “0.3”
[5] = tested on: Calcium-activated potassium channel subunit alpha-1 (Homo sapiens), Q12791 [UNDEFINED MUTATION]; assay: as §1, with “0.05” for “0.3”
[6] = tested on: Calcium-activated potassium channel subunit alpha-1 (Homo sapiens), Q12791 [UNDEFINED MUTATION]; assay: as §1, with “0.5” for “0.3”

fold change (FC) [1]: 8.1
fold change (FC) [2]: 9.2
fold change (FC) [3]: 3.6
fold change (FC) [4]: 9.6
fold change (FC) [5]: 2.1
fold change (FC) [6]: 9.3
SMILES: Nc1ccc(Oc2c(F)c(F)c(C(F)(F)F)c(F)c2F)c(O)c1
